Chains of the proteins cited; added tags and fusions are not shown. Lines headed by an entry give the natural chain unless they say otherwise; changes in a name come on top.
UniProt P34914: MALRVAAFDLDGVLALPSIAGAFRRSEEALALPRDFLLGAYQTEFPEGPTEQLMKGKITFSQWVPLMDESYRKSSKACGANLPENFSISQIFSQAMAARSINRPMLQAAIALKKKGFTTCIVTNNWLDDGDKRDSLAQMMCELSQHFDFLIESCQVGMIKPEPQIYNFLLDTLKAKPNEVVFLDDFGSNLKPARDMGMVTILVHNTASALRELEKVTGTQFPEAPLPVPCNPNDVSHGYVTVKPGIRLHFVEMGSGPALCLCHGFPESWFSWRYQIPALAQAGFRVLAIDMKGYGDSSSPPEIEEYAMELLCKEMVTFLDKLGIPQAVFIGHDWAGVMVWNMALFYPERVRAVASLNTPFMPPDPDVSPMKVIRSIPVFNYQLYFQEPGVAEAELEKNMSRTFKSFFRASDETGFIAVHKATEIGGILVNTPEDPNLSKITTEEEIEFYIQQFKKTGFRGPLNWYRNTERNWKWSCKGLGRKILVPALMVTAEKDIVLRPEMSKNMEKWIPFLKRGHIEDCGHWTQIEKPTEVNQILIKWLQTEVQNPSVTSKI

According to ChEMBL document CHEMBL4840312, “Discovery of memantyl urea derivatives as potent soluble epoxide hydrolase inhibitors against lipopolysaccharide-induced sepsis” (Eur J Med Chem, 2021):

Biological target: Bifunctional epoxide hydrolase 2 (Mus musculus, UniProt P34914)

CC(=O)N1CCC(NC(=O)NC23CC4CC(CC(C4)C2)C3)CC1 [AR9281]
IC50: 1.7 nM
